In patent US20040235712A1, “Coordination complexes having tethered therapeutic agents and/or targeting moieties, and methods of making and using the same” (priority 2003, published 2004):

Legend:
HCC-1937 cells = settings: read-out: Cytotoxicity data (IC50) HCC-1937, 5-7 days incubation, SRB
MCF-7 cells = settings: read-out: Cytotoxicity data (IC50) MCF-7, 5-7 days incubation, SRB

## cis, cis, trans-diamminedichloro-bis-(17-(N-(4-carboxy-butyl)-succinato)-estradiol-3-benzoate)platinum(IV) [BEP4]
HCC-1937 cells
  pIC50: 5.37
MCF-7 cells
  pIC50: 5.39

## cis, cis, trans-diamminedichloro-bis-(17-(N-(3-carboxy-propyl)-succinato)-estradiol-3-benzoate)platinum(IV) [BEP3]
HCC-1937 cells
  pIC50: 5.40
MCF-7 cells
  pIC50: 5.68

## cis, cis, trans-diamminedichloro-bis-(17-(N-(2-carboxy-ethyl)-succinato)-estradiol-3-benzoate)platinum(IV) [BEP2]
HCC-1937 cells
  pIC50: 5.41
MCF-7 cells
  pIC50: 5.54

## cis, cis, trans-diamminedichloro-bis-(17-(N-(5-carboxy-pentyl)-succinato)-estradiol-3-benzoate)platinum(IV) [BEP5]
HCC-1937 cells
  pIC50: 5.41
MCF-7 cells
  pIC50: 5.30

## cis, cis, trans-diamminedichloro-bis-(17-(N-carbonylmethylsuccinato)-estradiol-3-benzoate)platinum(IV) [BEP1]
HCC-1937 cells
  pIC50: 5.42
MCF-7 cells
  pIC50: 5.43

pIC50: −log10 of the molar value.
